These results are taken from patent US5763625A, “Synthesis and use of β-lapachone analogs” (priority 1995, dated 1998).

The test system of the assay is human radioresistant melanoma (U1-Mel) cells. The experiment in a line: Radiosensitization of X-irradiated confluence-arrested U1-Mel cells (survival). Particulars: 10 μM.
Setting [1] is: 4 Hr posttreatment after X-rays.

For `CCC1(N)C(=O)OCc2c1cc1n(c2=O)Cc2cc3ccccc3nc2-1` (racemic) [20-Amino-20(RS)-Deoxy(RS)], under setting [1], the Do is given as 197 ± 8 cGy and the Dq was 210 ± 5 cGy. Further, the “DER Values 1%” value (4 Hr posttreatment, 1% survival) is recorded as 1.8 ± 0.3. Further, where the note is “4 Hr posttreatment, 10% survival”, the “DER Values 10%” value was 1.4 ± 0.6.
